In patent US9248103B2, “Method for improving water solubility of slightly soluble substance” (Kabushiki Kaisha Sangi, priority 2012, dated 2016):

What was measured:
[1] = Dissolution test of poorly-soluble substances, distilled water; format: physicochemical
[2] = Dissolution test of poorly-soluble substances, 2nd fluid for disintegration test (pH 6.8) of the Japanese Pharmacopoeia; format: physicochemical
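Note: Comparative example rows not the inventive coated formulation.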

Dissolved amount, elution time 30 min ([1]; 30 min): 1566.8 µg/mL
Dissolved amount, elution time 60 min ([1]; 60 min): 1565.8 µg/mL
Dissolved amount, elution time 1 min [2]: 1980.2 µg/mL
Structure (SMILES): NC(N)=Nc1nc(CSCCC(N)=NS(N)(=O)=O)cs1
